Values quoted from earlier work, collected in patent US20220296825A1, “EXHALATION DELIVERY SYSTEM FOR AND METHOD OF TREATING SINUS DISEASE” (OptiNose AS, priority 2018, published 2022).

By UniProt entry, the sequences of proteins in these tests, tags left out.
UniProt P04150, whole entry, species assumed: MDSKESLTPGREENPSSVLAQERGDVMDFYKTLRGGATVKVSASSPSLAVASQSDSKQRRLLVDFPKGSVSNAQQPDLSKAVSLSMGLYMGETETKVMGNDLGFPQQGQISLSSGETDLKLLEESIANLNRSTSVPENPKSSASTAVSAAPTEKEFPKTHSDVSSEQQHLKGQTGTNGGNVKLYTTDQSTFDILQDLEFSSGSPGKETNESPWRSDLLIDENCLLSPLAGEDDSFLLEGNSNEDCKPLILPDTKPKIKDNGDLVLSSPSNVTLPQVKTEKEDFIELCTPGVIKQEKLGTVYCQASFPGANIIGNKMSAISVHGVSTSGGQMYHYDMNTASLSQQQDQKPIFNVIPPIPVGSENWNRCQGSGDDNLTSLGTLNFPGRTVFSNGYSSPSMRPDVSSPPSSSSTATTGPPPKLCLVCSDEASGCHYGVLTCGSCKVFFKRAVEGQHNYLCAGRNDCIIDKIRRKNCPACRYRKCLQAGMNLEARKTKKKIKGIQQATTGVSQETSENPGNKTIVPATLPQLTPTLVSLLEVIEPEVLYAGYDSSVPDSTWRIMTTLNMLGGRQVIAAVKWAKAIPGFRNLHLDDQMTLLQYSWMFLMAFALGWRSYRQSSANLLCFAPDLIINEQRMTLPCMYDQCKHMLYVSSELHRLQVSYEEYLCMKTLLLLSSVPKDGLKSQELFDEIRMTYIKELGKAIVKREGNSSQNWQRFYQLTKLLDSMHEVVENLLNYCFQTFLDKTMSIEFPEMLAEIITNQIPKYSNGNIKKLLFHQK

Target: glucocorticoid receptor (Homo sapiens, UniProt P04150)
Conditions: fluticasone propionate compared with budesonide

- glucocorticoid receptor binding affinity, fold higher: 1.7 ×
Substance: fluticasone propionate
